Measured values: PubChem BioAssay AID434950 (Johns Hopkins Ion Channel Center, 2010)
The entries are a selection whose mix differs from that of the whole data set. Active and inactive are the calls of the source.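 The calls were made as follows: active = membrane potential signal rise above negative control mean plus 3 SD in both duplicates, also active in the earlier TRPC4 screen; inactive = the rest.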

Protein sequences, listed by entry. Tags and fused reporters are not part of them. Lines headed by an entry give the natural chain unless they say otherwise; changes in a name come on top.
UniProt Q61143: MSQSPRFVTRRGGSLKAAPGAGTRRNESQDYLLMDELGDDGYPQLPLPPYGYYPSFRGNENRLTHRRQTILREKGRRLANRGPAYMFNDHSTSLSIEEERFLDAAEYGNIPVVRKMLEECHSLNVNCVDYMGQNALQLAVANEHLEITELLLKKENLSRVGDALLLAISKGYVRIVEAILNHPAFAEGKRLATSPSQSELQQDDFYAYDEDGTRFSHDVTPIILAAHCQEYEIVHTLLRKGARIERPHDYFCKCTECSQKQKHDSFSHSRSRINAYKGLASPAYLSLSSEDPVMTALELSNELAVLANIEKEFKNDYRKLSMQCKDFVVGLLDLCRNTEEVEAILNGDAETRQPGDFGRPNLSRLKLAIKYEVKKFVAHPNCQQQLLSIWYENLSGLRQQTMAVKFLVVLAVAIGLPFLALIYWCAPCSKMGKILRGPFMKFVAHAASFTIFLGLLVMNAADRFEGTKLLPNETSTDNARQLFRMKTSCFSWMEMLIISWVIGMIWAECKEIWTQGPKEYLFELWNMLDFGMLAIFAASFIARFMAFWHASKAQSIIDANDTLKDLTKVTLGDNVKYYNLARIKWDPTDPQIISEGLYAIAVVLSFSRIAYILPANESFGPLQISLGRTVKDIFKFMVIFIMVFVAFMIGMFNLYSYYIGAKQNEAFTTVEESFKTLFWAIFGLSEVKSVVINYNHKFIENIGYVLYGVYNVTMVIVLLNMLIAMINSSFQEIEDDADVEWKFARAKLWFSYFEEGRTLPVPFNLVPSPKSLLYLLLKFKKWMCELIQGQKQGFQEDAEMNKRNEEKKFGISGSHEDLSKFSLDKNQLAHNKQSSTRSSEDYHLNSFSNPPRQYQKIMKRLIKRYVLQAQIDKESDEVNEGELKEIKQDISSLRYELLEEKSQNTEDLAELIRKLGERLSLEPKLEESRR

Each compound was assayed against Short transient receptor potential channel 6 (Mus musculus) (UniProt Q61143) (assay: TRPC6 opening by TRPC4 activator hits – cell-based, HEK293, membrane potential dye, duplicate, selectivity assay for TRPC4 activator project, confirmation (AID 434950;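 also: 0% = buffer only wells and 100% = acetylcholine maximal-effect wells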)). Conditions: HEK293 TRPC6, membrane potential fluorescence, at 10 µM, active compounds read high.
In the case of `CN(C)C1(CNC(=O)c2ccc(Cl)c(S(N)(=O)=O)c2)CCCCC1`, the activation is reported as inactive: 0%.
